# Experimental data reported in patent publication US9890152B2 (Genentech, Inc., priority 2012, dated 2018).
# Amino acid sequences for entries named in this document (tags omitted). Residues count along the entry.
# UniProt P00533, 25-1210 T790M/L858R limits assumed: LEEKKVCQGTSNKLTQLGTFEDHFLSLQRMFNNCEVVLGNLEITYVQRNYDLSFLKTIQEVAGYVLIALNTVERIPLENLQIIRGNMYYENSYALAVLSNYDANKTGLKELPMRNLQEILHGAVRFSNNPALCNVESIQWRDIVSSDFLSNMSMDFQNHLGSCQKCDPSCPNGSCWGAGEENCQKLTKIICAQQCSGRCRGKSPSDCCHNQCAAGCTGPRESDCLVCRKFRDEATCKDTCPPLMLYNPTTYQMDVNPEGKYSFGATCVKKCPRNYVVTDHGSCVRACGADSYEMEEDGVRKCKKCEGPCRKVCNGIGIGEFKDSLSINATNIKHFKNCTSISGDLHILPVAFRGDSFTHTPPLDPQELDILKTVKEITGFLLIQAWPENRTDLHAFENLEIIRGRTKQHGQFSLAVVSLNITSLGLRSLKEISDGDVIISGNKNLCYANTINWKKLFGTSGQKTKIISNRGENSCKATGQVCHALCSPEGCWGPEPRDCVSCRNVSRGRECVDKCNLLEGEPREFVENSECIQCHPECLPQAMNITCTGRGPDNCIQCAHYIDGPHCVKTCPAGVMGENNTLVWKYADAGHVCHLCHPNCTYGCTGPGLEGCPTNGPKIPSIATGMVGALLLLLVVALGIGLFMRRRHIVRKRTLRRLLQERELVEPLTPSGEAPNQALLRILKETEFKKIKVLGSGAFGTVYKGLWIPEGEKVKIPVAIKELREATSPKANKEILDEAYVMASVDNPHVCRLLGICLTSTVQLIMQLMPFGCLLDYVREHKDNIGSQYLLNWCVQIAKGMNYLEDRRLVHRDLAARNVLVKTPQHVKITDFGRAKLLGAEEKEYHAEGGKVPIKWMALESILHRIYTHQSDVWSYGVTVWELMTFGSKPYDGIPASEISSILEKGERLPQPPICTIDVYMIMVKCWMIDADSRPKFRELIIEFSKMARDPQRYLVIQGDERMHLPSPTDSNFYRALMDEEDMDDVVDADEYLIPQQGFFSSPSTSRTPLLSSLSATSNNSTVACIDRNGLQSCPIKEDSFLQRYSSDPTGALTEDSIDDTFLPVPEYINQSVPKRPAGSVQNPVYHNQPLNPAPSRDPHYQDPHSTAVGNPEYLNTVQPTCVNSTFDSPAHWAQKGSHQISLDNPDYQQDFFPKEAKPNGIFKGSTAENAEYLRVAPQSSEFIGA
# Structures can show the parent of a compound that is named as a salt.
# Molecular target: EGFR T790M L858R (Homo sapiens, UniProt P00533, L858R/T790M)
# Assay: biochemical
# Conditions: EGFR(T790M/L858R) Ki (μM), 5 μM ATP, 30 min, room temperature; apparent Ki (Morrison) converted by Cheng-Prusoff, Km of ATP 1.3 μM
row,Compound,Ki
1,"CC(C)n1cnc2cnc(Nc3ccnc(N4CCC(C(N)=O)C4)n3)cc21 (stereo not shown) [Example 77, 1-(4-(1-isopropyl-1H-imidazo[4,5-c]pyridin-6-ylamino)pyrimidin-2-yl)pyrrolidine-3-carboxamide]",0.494 µM
2,"Cc1nc2cnc(Nc3ccnc(-c4cnn(S(=O)(=O)C5CC5)c4)n3)cc2[nH]1 [Example 461, N-(2-(1-(cyclopropylsulfonyl)-1H-pyrazol-4-yl)pyrimidin-4-yl)-2-methyl-1H-imidazo[4,5-c]pyridin-6-amine]",0.0829 µM
3,"CN(CCO)c1nccc(Nc2cc3c(ccn3C3CCCC3)cn2)n1 [Example 140, formate salt]",0.155 µM
4,"Cc1nc2cnc(Nc3ccnc(-c4cnc(S(=O)(=O)c5ccccc5)n4C)n3)cc2n1C(C)C [Example 316, [2-(2-Benzenesulfonyl-3-methyl-3H-imidazol-4-yl)pyrimidin-4-yl]-(1-isopropyl-2-methyl-1H-imidazo[4,5-c]pyridin-6-yl)amine]",0.836 µM
5,"CCn1cc(S(=O)(=O)n2cc(-c3nccc(Nc4cc5c(cn4)nc(C)n5C(C)C)n3)cn2)cn1 [Example 407, N-(2-(1-((1-ethyl-1H-pyrazol-4-yl)sulfonyl)-1H-pyrazol-4-yl)pyrimidin-4-yl)-1-isopropyl-2-methyl-1H-imidazo[4,5-c] pyridin-6-amine]",0.201 µM
6,"Cc1nc2cnc(Nc3ccnc(N4CCC(N)C(C)(C)C4)n3)cc2n1C(C)C (stereo not shown) [Example 428, N-(2-(4-amino-3,3-dimethylpiperidin-1-yl)pyrimidin-4-yl)-1-isopropyl-2-methyl-1H-imidazo[4,5-c]pyridin-6-amine]",0.639 µM
7,"COC1CCN(c2nccc(Nc3cc4c(cn3)c(C(=O)N3CCCC3)cn4C(C)C)n2)CC1 [Example 119, (1-isopropyl-6-((2-(4-methoxypiperidin-1-yl)pyrimidin-4-yl)amino)-1H-pyrrolo[3,2-c]pyridin-3-yl)(pyrrolidin-1-yl)methanone]",0.0172 µM
8,"CCOC1CCN(c2nccc(Nc3cc4c(cn3)c(C(N)=O)cn4C(C)C)n2)CC1 [Example 123, 6-((2-(4-ethoxypiperidin-1-yl)pyrimidin-4-yl)amino)-1-isopropyl-1H-pyrrolo[3,2-c]pyridine-3-carboxamide]",0.0148 µM
9,"CC(C)n1cc(C(=O)NC2CCC(O)CC2)c2cnc(Nc3ccnc(-c4cnn(S(=O)(=O)C5CC5)c4)n3)cc21 (stereo not shown) [Example 454, 6-(2-(1-(cyclopropylsulfonyl)-1H-pyrazol-4-yl)pyrimidin-4-ylamino)-N-(4-hydroxycyclohexyl)-1-isopropyl-1H-pyrrolo[3,2-c]pyridine-3-carboxamide]",0.000548 µM
10,"COC1CCN(c2nccc(Nc3cc4c(ccn4CCS(C)(=O)=O)cn3)n2)CC1 [Example 421, N-(2-(4-methoxypiperidin-1-yl)pyrimidin-4-yl)-1-(2-(methylsulfonyl)ethyl)-1H-pyrrolo[3,2-c]pyridin-6-amine]",0.403 µM
11,"Cc1nc2cnc(Nc3ccnc(N4CCC(O)C(O)C4)n3)cc2n1C(C)C (stereo not shown) [Example 34, 1-[4-(1-Isopropyl-2-methyl-1H-imidazo[4,5-c]pyridin-6-ylamino)pyrimidin-2-yl]piperidine-3,4-diol]",0.113 µM
12,"CC(C)n1cnc2cnc(Nc3ccnc(N4CCn5ccnc5C4)n3)cc21 [Example 15, [2-(5,6-Dihydro-8H-imidazo[1,2-a]pyrazin-7-yl)pyrimidin-4-yl]-(1-isopropyl-1H-imidazo[4,5-c]pyridin-6-yl)amine]",1.39 µM
13,"Cc1nc2cnc(Nc3ccnc(N4CCc5cnn(CCO)c5C4)n3)cc2n1C(C)C [Example 277, 2-{6-[4-(1-Isopropyl-2-methyl-1H-imidazo[4,5-c]pyridin-6-ylamino)pyrimidin-2-yl]-4,5,6,7-tetrahydropyrazolo[3,4-c]pyridin-1-yl}ethanol]",0.0945 µM
14,CC(C)n1cnc2cnc(Nc3ccnc(N4C5CCC4C(C(N)=O)C5)n3)cc21 (stereo not shown) [Example 214],1.17 µM
15,"CC(C)n1cnc2cnc(Nc3ccnc(-c4cnn(CCO)c4)n3)cc21 [Example 95, 2-(4-(4-((1-isopropyl-1H-imidazo[4,5-c]pyridin-6-yl)amino)pyrimidin-2-yl)-1H-pyrazol-1-yl)ethanol]",0.232 µM
16,"CC(C)n1c(C=O)nc2cnc(Nc3ccnc(-c4cnn(S(=O)(=O)C5CC5)c4)n3)cc21 [Example 264, 6-(2-(1-(Cyclopropylsulfonyl)-1H-pyrazol-4-yl)pyrimidin-4-ylamino)-1-isopropyl-1H-imidazo[4,5-c]pyridine-2-carbaldehyde]",0.00172 µM
17,CC(C)n1cnc2cnc(Nc3ccnc(NCC(C)(C)O)n3)cc21 [Example 166],0.569 µM
18,"CO[C@@H]1CCN(c2nccc(Nc3cc4c(cn3)nc(C)n4C(C)C)n2)C[C@H]1NS(C)(=O)=O (relative stereo) [Example 266, (trans)-N-{1-[4-(1-Isopropyl-2-methyl-1H-imidazo[4,5-c]pyridin-6-ylamino)pyrimidin-2-yl]-4-methoxypiperidin-3-yl}methanesulfonamide formate salt]",0.275 µM
19,"CC(C)n1cnc2cnc(Nc3ccnc(N4CC[S+]([O-])CC4)n3)cc21 [Example 29, 4-(4-((1-isopropyl-1H-imidazo[4,5-c]pyridin-6-yl)amino)pyrimidin-2-yl)thiomorpholine 1-oxide]",0.557 µM
20,"COC1CCN(c2nccc(Nc3cc4c(cn3)ncn4C3CCOC3)n2)CC1 (stereo not shown) [Example 18, [2-(4-Methoxypiperidin-1-yl)pyrimidin-4-yl]-[1-(tetrahydrofuran-3-yl)-1H-imidazo[4,5-c]pyridin-6-yl]amine]",0.187 µM
21,CC(C)n1cnc2cnc(Nc3ccnc(N4CC5CC4(CN)C5)n3)cc21 [Example 238],1.73 µM
22,"Cc1nc2cnc(Nc3ccnc(NCCC(N)=O)n3)cc2n1C(C)C [Example 298, 3-[4-(1-Isopropyl-2-methyl-1H-imidazo[4,5-c]pyridin-6-ylamino)pyrimidin-2-ylamino]propionamide]",0.161 µM
23,CC(C)n1cnc2cnc(Nc3ccnc(N4CCOC(C(N)=O)C4)n3)cc21 (stereo not shown) [Example 169],0.148 µM
24,"COC1CCN(c2nccc(Nc3cc4c(ccn4CC(C)(C)C(N)=O)cn3)n2)CC1 [Example 31, 3-{6-[2-(4-Methoxypiperidin-1-yl)pyrimidin-4-ylamino]pyrrolo[3,2-c]pyridin-1-yl}-2,2-dimethylpropionamide]",0.192 µM
25,CC(C)n1cnc2cnc(Nc3ccnc(N4CC5CC5C4)n3)cc21 (stereo not shown) [Example 216],0.443 µM
26,"CC(C)n1c(CO)nc2cnc(Nc3ccnc(-c4cnn(S(=O)(=O)C5CC5)c4)n3)cc21 [Example 272, {6-[2-(1-Cyclopropanesulfonyl-1H-pyrazol-4-yl)pyrimidin-4-ylamino]-1-isopropyl-1H-imidazo[4,5-c]pyridin-2-yl}methanol]",0.00355 µM
27,CC1CN(c2nccc(Nc3cc4c(cn3)ncn4C(C)C)n2)CC1O (stereo not shown) [Example 209],0.379 µM

# More lines, now with the values ahead:
row,Ki,Compound
1,0.0172 µM,"Cc1nc2cnc(Nc3ccnc(-c4cnn(S(=O)(=O)C5CC5CO)c4)n3)cc2n1C(C)C (stereo not shown) [Example 464, (2-(4-(4-(1-isopropyl-2-methyl-1H-imidazo[4,5-c]pyridin-6-ylamino)pyrimidin-2-yl)-1H-pyrazol-1-ylsulfonyl)cyclopropyl)methanol]"
2,0.00461 µM,Cc1nc2cnc(Nc3ccnc(N4CCC5(OCCO5)C(F)C4)n3)cc2n1C(C)C (stereo not shown) [Example 653]
3,0.672 µM,"Cc1nc2cnc(Nc3ccnc(NCCCC(N)=O)n3)cc2n1C(C)C [Example 583, 4-[4-(1-Isopropyl-2-methyl-imidazo[4,5-c]pyridin-6-ylamino)pyrimidin-2-ylamino]butyramide]"
4,0.0114 µM,Cc1nc2cnc(Nc3ccnc(N4CCc5cn[nH]c5C4)n3)cc2n1C(C)C [Example 651]
5,0.0174 µM,"C[C@@H](O)c1nc2cnc(Nc3ccnc(N4CCC(O)C(F)C4)n3)cc2n1[C@H](C)C(F)(F)F (stereo partly drawn) [Example 542, 3-Fluoro-1-{4-[2-((R)-1-hydroxyethyl)-1-((R)-2,2,2-trifluoro-1-methylethyl)-1H-imidazo[4,5-c]pyridin-6-ylamino]pyrimidin-2-yl}-piperidin-4-ol]"
6,0.00466 µM,"O=S(=O)(C1CC1)n1cc(-c2nccc(Nc3cc4c(cn3)nc(CO)n4C3CCCCC3)n2)cn1 [Example 479, (1-cyclohexyl-6-(2-(1-(cyclopropylsulfonyl)-1H-pyrazol-4-yl)pyrimidin-4-ylamino)-1H-imidazo[4,5-c]pyridin-2-yl)methanol]"
7,0.00135 µM,"CNc1ncc(-c2nccc(Nc3cc4c(cn3)nc(CO)n4C(C)C)n2)s1 [Example 588, {1-Isopropyl-6-[2-(2-methylaminothiazol-5-yl)pyrimidin-4-ylamino]-1H-imidazo[4,5-c]pyridin-2-yl}methanol]"
8,0.00235 µM,C[C@H](n1c([C@@H](C)O)nc2cnc(Nc3ccnc(N4C[C@@H](F)[C@@H](O)[C@@H](F)C4)n3)cc21)C(F)(F)F [Example 701]
9,0.0398 µM,"CO[C@H]1C[C@H]2CC[C@@H](C1)N2c1nccc(Nc2cc3c(cn2)nc(C)n3C(C)C)n1 [Example 493, (1-Isopropyl-2-methyl-1H-imidazo[4,5-c]pyridin-6-yl)-[2-((1RS,3RS,5SR)-3-methoxy-8-azabicyclo[3.2.1]oct-8-yl)pyrimidin-4-yl]amine]"
10,0.297 µM,Cc1nc2cnc(Nc3ccnc(N4CC[C@@H](O)C4)n3)cc2n1C(C)C [Example 680]
11,0.0783 µM,Cc1nc2cnc(Nc3ccnc(N4CCC(F)(F)CC4)n3)cc2n1C(C)C [Example 677]
12,0.0344 µM,"Cc1nc2cnc(Nc3ccnc(N4CC[C@H]([S+](C)[O-])[C@H](F)C4)n3)cc2n1C(C)C (mixture of isomers) [Example 618, [2-(±)-(cis-3-Fluoro-4-methanesulfinylpiperidin-1-yl)pyrimidin-4-yl]-(1-isopropyl-2-methyl-1H-imidazo[4,5-c]pyridin-6-yl)amine]"
13,0.0498 µM,"COC1CCN(c2nccc(Nc3cc4c(cn3)nc(C)n4C(C)CCO)n2)CC1 (stereo not shown) [Example 492, 3-{6-[2-(4-Methoxypiperidin-1-yl)pyrimidin-4-ylamino]-2-methylimidazo[4,5-c]pyridin-1-yl}butan-1-ol]"
